Measurements reported in article PMC2877875, “Characterisation of the bifunctional dihydrofolate synthase–folylpolyglutamate synthase from Plasmodium falciparum; a potential novel target for antimalarial antifolate inhibition” (Molecular and Biochemical Parasitology, 2010).

Tested on: 5,6,7,8-tetrahydrofolate
Test: purified protein, by the assay type
Conditions: other: Michaelis–Menten fit; 37.0 °C

With “PfDHFS–FPGS (FPGS activity) (Plasmodium falciparum 3D7)” the Km was 0.96 µM.
